{
  "sequences": {"note": "Sequences of proteins named here, by UniProt entry; tags and fusion partners are left off. Residues count along the entry.", "UniProt P00742, 235-488 limits assumed": "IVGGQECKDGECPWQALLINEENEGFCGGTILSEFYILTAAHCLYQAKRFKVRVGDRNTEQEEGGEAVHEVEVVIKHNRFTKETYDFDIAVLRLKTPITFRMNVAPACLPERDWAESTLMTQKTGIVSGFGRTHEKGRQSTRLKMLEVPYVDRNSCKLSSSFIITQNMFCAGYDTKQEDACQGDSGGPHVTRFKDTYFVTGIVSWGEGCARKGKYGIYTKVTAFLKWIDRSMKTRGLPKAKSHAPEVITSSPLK", "UniProt P00742, 41-179 partner limits assumed": "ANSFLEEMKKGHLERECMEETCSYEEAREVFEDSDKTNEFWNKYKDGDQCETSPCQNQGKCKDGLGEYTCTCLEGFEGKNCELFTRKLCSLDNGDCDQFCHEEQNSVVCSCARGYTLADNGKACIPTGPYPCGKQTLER"},
  "source": "patent US6825191B2",
  "about": "“Benzodiazepine derivatives” (Ajinomoto Co., Inc., priority 2000, dated 2004)",
  "key": {"[1]": {"target": "activated human blood coagulation factor X (Homo sapiens, UniProt P00742)", "experiment": "Determination of activity of inhibiting the activated blood-coagulation factor X (chromogenic substrate, initial rate)", "conditions": "negative logarithm of concentration inhibiting 50% of initial rate; tris hydrochloride buffer pH 8.4, room temperature; tested form: TFA", "description": "Determination of Activity of inhibiting the Activated Blood-coagulation Factor X\n130 μl of 100 mM tris hydrochloride buffer adjusted to pH 8.4 was added to 10 μl of an aqueous solution of a compound to be tested. Then 10 μl of a 0.5 unit/ml solution of activated human blood coagulation factor X (a product of Enzyme Research Co.) in tris hydrochloride buffer of pH 8.4 was added to the resultant mixture. After the incubation at room temperature for 10 minutes, 50 μl of a solution of N-benzoyl-L-isoleucyl-L-glutamyl-glycyl-L-arginyl-P-nitroanilide hydrochloride (a product of Peptide Institute Inc.) adjusted to 0.8 mM with tris hydrochloride (pH 8.4) was added thereto. The a absorbance was determined and then the initial reaction rate was determined. A control was prepared in the same manner as that described above except that the solution of the compound to be tested was replaced with 10 μl of tris hydrochloride buffer adjusted to pH 8.4. The absorbance was determined with MICROPLATE READER Model 3550-UV (a product of BIO RAD) at a wave length of 405 nm at intervals of 15 seconds for 16 minutes."}, "human thrombin": {"target": "human thrombin (Homo sapiens, UniProt P00734)", "experiment": "Determination of thrombin-inhibiting activity (chromogenic substrate S-2238, initial rate)", "conditions": "negative logarithm of concentration inhibiting 50% of initial rate; tris hydrochloride buffer pH 8.4, room temperature; tested form: TFA", "description": "Determination of Thrombin-inhibiting Activity\n130 μL of 100 mM tris hydrochloride buffer adjusted to pH 8.4 was added to 10 μl of an aqueous solution of a test compound. Then 10 μl of a solution of human thrombin (a product of SIGMA Co.) adjusted to 2 units/ml with tris hydrochloride buffer of pH 8.4 was added to the resultant mixture. After the incubation at room temperature for 10 minutes, 50 μl of a solution of D-phenylalanine-L-pipecolyl-L-arginine-P-nitroanilide dihydrochloride (S-2238; a product of Daiichi Kagaku Yakuhin Co.) adjusted to 0.4 mM with tris hydrochloride buffer of pH 8.4 was added thereto. The absorbance was determined and then the initial reaction rate was determined. A control was prepared in the same manner as that described above except that the solution of the compound to be tested was replaced with 10 μl of tris hydrochloride buffer adjusted to pH 8.4. The absorbance was determined with MICROPLATE READER Model 3550-UV (a product of BIO RAD) at a wave length of 405 nm at intervals of 15 seconds for 16 minutes. The negative logarithm (pIC50) of a concentration of the test compound which inhibits 50% of the activity (initial rate) of the thrombin in the absence of the test compound was determined, and employed as the index of the activity of inhibiting thrombin."}},
  "data": [
    {"compound": "CN1CCN=C1c1ccc(CN2C(=O)CN(C(=O)c3ccc(Cl)cc3)Cc3ccccc32)c(F)c1", "values": [
      {"measurement": "Activity of inhibiting activated blood coagulation factor X (pIC50)", "setting": "[1]", "result": 6.5},
      {"measurement": "Thrombin-inhibiting activity (pIC50)", "setting": "human thrombin", "result": 4.1}
    ]}
  ]
}
